High-throughput results as filed in PubChem BioAssay.
Hits are enriched below; roughly 1.8% of the tested compounds scored in any of these assays.
Yeast UUG start – yeast start codon fidelity modulation | S. cerevisiae UUG-firefly luciferase reporter, luminescence/redox ratio | activity score, % at 18.7 µM | hit rate 0.13% among 350,000 | AID 602363;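 active means replicate mean at a twofold rise or more, about +100% in these data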;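 further: firefly luciferase made from a UUG start codon reports start codon fidelity; reporter light over untreated wells divided by growth signal over untreated wells; some hits fall short of that in this replicate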
DENV2 CPE – inhibitors of DENV2 cytopathic effect | DENV2-infected cells, cytopathic effect rescue, plate reader | CPE inhibition, % at 9.99 µM | 350,000 tested, 1.7% active; in the data active means CPE inhibition above about 20%, passing the limit was not always enough; tested in BHK-21 cells;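 further: 0% = median of neutral control wells and 100% = median of positive control wells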
E-sel inducer – E-selectin induction on HUVECs. 260,000 tested, 0.37% active. activation, % at 7.58 µM. P16581. AID 686992. HUVEC E-selectin immunofluorescence imaging; normalized: neutral wells 0, TNF-alpha wells 100;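 active means mean E-selectin-positive cell signal at least 10% of the positive control, reached in at least 60% of replicates, without over 20% cell loss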
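Read-out: % PE-positive cells | Test system: HUVEC | Doses: One compound dose added by pin transfer | Buffer or medium: EGM-2 over gelatin coat | Signal: Immunofluorescence imaging | Benchmarks: TNF-alpha, DMSO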
Cneo AK release – causes C. neoformans cell lysis. adenylate kinase release luminescence, 4 h; normalised: neutral wells 0, clomiphene wells 100. lysis activity, % at 15 µM. 360,000 tested, 0.2% active;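 active means mean lysis activity across replicates of at least 80%, whatever share of replicates individually reach that level; inactive means mean lysis activity below 80%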
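Material: C. neoformans cells | Amount: Yeast cell density of 5 × 10^6 cells/mL | Medium: Fresh YPD growth medium | Dosing: Single dose | Times: Static 4 h at 37 °C with compound, 1 h detection | Detection: AK luminescence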
* hit, by the source's call.

COc1ccccc1-c1ccc([C@H]2[C@@H](C#N)N(C(=O)C3CC3)[C@@H]2CO)cc1 was read as Yeast UUG start 31, DENV2 CPE -6, E-sel inducer 0 and Cneo AK release 87*.
COc1ccccc1-c1ccccc1[C@@H]1[C@@H](C#N)N(C(=O)C2CCC2)[C@@H]1CO was read as DENV2 CPE 44* and E-sel inducer 0.
`COc1ccc(NC(=O)Nc2cccc3c2O[C@@H](CN(C)C(=O)Nc2ccccc2)[C@H](C)CN([C@H](C)CO)C3=O)cc1` gave Yeast UUG start 20, DENV2 CPE 36*, E-sel inducer 1 and Cneo AK release -5.
Screening COc1ccc(NC(=O)Nc2cccc3c2O[C@H](CN(C)C(=O)Nc2ccc(OC)cc2)[C@@H](C)CN([C@@H](C)CO)C3=O)cc1 returned Yeast UUG start 15, DENV2 CPE 144*, E-sel inducer 0 and Cneo AK release 37.
C[C@H](CO)N1C[C@H](C)[C@H](CN(C)C(=O)Nc2ccc(F)cc2)Oc2c(NC(=O)Nc3cccc4ccccc34)cccc2C1=O was read as Yeast UUG start -20, DENV2 CPE 42*, E-sel inducer 0 and Cneo AK release -1.
For COc1ccc(NC(=O)N(C)C[C@H]2Oc3c(NC(=O)Nc4ccccc4)cccc3C(=O)N([C@@H](C)CO)C[C@H]2C)cc1 the results were Yeast UUG start 3, DENV2 CPE -4, E-sel inducer 0 and Cneo AK release -8.
C[C@H]1CN([C@@H](C)CO)C(=O)c2cccc(NC(=O)Nc3cccc4ccccc34)c2O[C@@H]1CN(C)C(=O)Nc1ccc(F)cc1 was read as Yeast UUG start 0, DENV2 CPE -8, E-sel inducer -3 and Cneo AK release -1.
Screening COc1ccc(NC(=O)Nc2cccc3c2O[C@@H](CN(C)C(=O)NC2CCCCC2)[C@H](C)CN([C@H](C)CO)C3=O)cc1 returned Yeast UUG start 4, DENV2 CPE 4, E-sel inducer 49* and Cneo AK release 2.
Screening O=C(C[C@@H]1CC[C@H](NC(=O)C2CCOCC2)[C@H](CO)O1)NCC1CC1 returned DENV2 CPE 10 and E-sel inducer 0.
For CC(C)NC(=O)N(C)C[C@@H]1Oc2ccc(NC(=O)NC3CCCCC3)cc2C(=O)N([C@H](C)CO)C[C@@H]1C the results were Yeast UUG start -5, DENV2 CPE -4, E-sel inducer -1 and Cneo AK release 0.
For COc1ccc(NC(=O)Nc2cccc3c2O[C@H](CN(C)S(=O)(=O)c2ccccc2)[C@H](C)CN([C@@H](C)CO)C3=O)cc1 the results were Yeast UUG start 3, DENV2 CPE 80*, E-sel inducer 0 and Cneo AK release -14.
`COc1ccc(NC(=O)N(C)C[C@@H]2Oc3c(NC(=O)Nc4ccc(F)cc4)cccc3C(=O)N([C@@H](C)CO)C[C@H]2C)cc1` gave Yeast UUG start 18, DENV2 CPE 34*, E-sel inducer 0 and Cneo AK release 47.
Screening CCC(=O)Nc1ccc2c(c1)C(=O)N(C)[C@@H]1CC[C@H](CC(=O)O)O[C@@H]1CO2 returned Yeast UUG start -11, DENV2 CPE 18, E-sel inducer 0 and Cneo AK release -3.
For COc1ccc(N2CCN(C(=O)c3cccc(NC4=NC5CS(=O)(=O)CC5S4)c3)CC2)cc1 (stereo not given) the results were Yeast UUG start -18, DENV2 CPE -2, E-sel inducer 53* and Cneo AK release -2.
C[C@@H]1CCCCO[C@H](CN(C)CC2CCCCC2)[C@@H](C)CN([C@H](C)CO)C(=O)c2cc(NC(=O)Nc3ccccc3)ccc2O1 was read as Yeast UUG start 24, DENV2 CPE 21*, E-sel inducer 0 and Cneo AK release 35.
For C[C@@H]1CCCCO[C@H](CN(C)CC2CCCCC2)[C@@H](C)CN([C@H](C)CO)C(=O)c2cc(NC(=O)Nc3cccc4ccccc34)ccc2O1 the results were Yeast UUG start -10, DENV2 CPE -3, E-sel inducer 0 and Cneo AK release 0.
Screening C[C@H](CO)N1C[C@H](C)[C@@H](CN(C)CC2CCCCC2)Oc2ccc(NC(=O)Nc3ccc(F)cc3)cc2C1=O returned Yeast UUG start 2, DENV2 CPE 27*, E-sel inducer 0 and Cneo AK release -1.
For C[C@H]1CN([C@@H](C)CO)C(=O)c2cc(NC(=O)Nc3ccccc3)ccc2O[C@H]1CN(C)CC1CCCCC1 the results were Yeast UUG start -7, DENV2 CPE 11, E-sel inducer 0 and Cneo AK release -1.
C[C@@H]1CCCCO[C@@H](CN(C)CC2CCCCC2)[C@@H](C)CN([C@@H](C)CO)C(=O)c2cc(NC(=O)Nc3ccccc3)ccc2O1 was read as Yeast UUG start 46, DENV2 CPE -10, E-sel inducer 0 and Cneo AK release 4.
For C[C@@H]1CN([C@@H](C)CO)C(=O)c2cc(NC(=O)Nc3cccc4ccccc34)ccc2O[C@H]1CN(C)CC1CCCCC1 the results were Yeast UUG start 7, DENV2 CPE 34*, E-sel inducer 20 and Cneo AK release 1.

Pulled one by one from the entries so far, 2 records:
For C[C@@H]1CCCCO[C@H](CN(C)CC2CCCCC2)[C@@H](C)CN([C@H](C)CO)C(=O)c2cc(NC(=O)Nc3cccc4ccccc34)ccc2O1 the results were Yeast UUG start -10, DENV2 CPE -3, E-sel inducer 0 and Cneo AK release 0.
`COc1ccc(NC(=O)N(C)C[C@@H]2Oc3c(NC(=O)Nc4ccc(F)cc4)cccc3C(=O)N([C@@H](C)CO)C[C@H]2C)cc1` gave Yeast UUG start 18, DENV2 CPE 34*, E-sel inducer 0 and Cneo AK release 47.

Continuation:
`C[C@H](CO)N1C[C@H](C)[C@H](CN(C)CC2CCCCC2)Oc2ccc(NC(=O)Nc3ccc4c(c3)OCO4)cc2C1=O` gave Yeast UUG start 22, DENV2 CPE -15, E-sel inducer 349* and Cneo AK release 83*.
For CN(C)C(=O)C[C@H]1CC[C@@H]2[C@H](COC[C@H](O)CN2Cc2ccc(C(F)(F)F)cc2)O1 the results were DENV2 CPE 9, E-sel inducer 0 and Cneo AK release 1.
For Cc1noc(C)c1NC(=O)Nc1ccc2c(c1)C(=O)N([C@H](C)CO)C[C@H](C)[C@H](CN(C)CC1CCCCC1)O2 the results were Yeast UUG start 19, DENV2 CPE -4, E-sel inducer 3 and Cneo AK release 93*.
C[C@@H]1CCCCO[C@@H](CN(C)CC2CC2)[C@H](C)CN([C@H](C)CO)C(=O)c2cc(NC(=O)Nc3ccccc3)ccc2O1 was read as DENV2 CPE 41*, E-sel inducer 0 and Cneo AK release 28.
C[C@@H]1CN([C@@H](C)CO)C(=O)c2cc(NC(=O)Nc3ccc(F)cc3)ccc2O[C@@H](C)CCCCO[C@@H]1CN(C)CC1CCCCC1 was read as Yeast UUG start 47, DENV2 CPE 2, E-sel inducer 0 and Cneo AK release 51.
C[C@H](CO)N1C[C@H](C)[C@H](CN(C)CC2CCCCC2)OCCCC[C@H](C)Oc2ccc(NC(=O)Nc3ccc(F)cc3)cc2C1=O was read as Yeast UUG start 14, DENV2 CPE 25*, E-sel inducer 0 and Cneo AK release 4.
For C[C@@H]1CCCCO[C@H](CN(C)CC2CCCCC2)[C@H](C)CN([C@@H](C)CO)C(=O)c2cc(NC(=O)Nc3ccccc3)ccc2O1 the results were Yeast UUG start 39, DENV2 CPE 9, E-sel inducer 0 and Cneo AK release 1.
Cc1ccc(S(=O)(=O)Nc2ccc3c(c2)C(=O)N([C@H](C)CO)C[C@H](C)[C@H](CN(C)C(=O)Nc2ccc4c(c2)OCO4)O3)cc1 was read as E-sel inducer 0.

Entries above that have a cyano group:
COc1ccccc1-c1ccc([C@H]2[C@@H](C#N)N(C(=O)C3CC3)[C@@H]2CO)cc1 was read as Yeast UUG start 31, DENV2 CPE -6, E-sel inducer 0 and Cneo AK release 87*.
COc1ccccc1-c1ccccc1[C@@H]1[C@@H](C#N)N(C(=O)C2CCC2)[C@@H]1CO was read as DENV2 CPE 44* and E-sel inducer 0.
